Laboratory results as given in patent US9863701B2, “Compositions and methods for atmospheric spray freeze drying” (Aerosol Therapeutics, LLC, priority 2013, dated 2018).

Key:
[1] = Moisture content of powder after ASFD run, second generation equipment; type: physicochemical; conditions: spray gas 5 SCFM, drying 20 SCFM
[2] = 10% BSA, 3.5 hours
[3] = 10% BSA, drying 20 SCFM, 3 hours

Row | Substance | moisture content ([1]; 0.5% Dextran 500 and 10.5% sucrose aqueous solution, 25 ml, after ten hours) [%] | moisture content ([1]; 10% BSA aqueous solution, 50 ml, after three hours) [%] | moisture content ([2]; 20° F., high flow run (25 SCFM full duration)) [%] | moisture content ([2]; 20° F., low flow run (20 SCFM first hour then 25 SCFM)) [%] | moisture content ([2]; 30° F., high flow run (25 SCFM full duration)) [%] | moisture content ([2]; 30° F., low flow run (20 SCFM first hour then 25 SCFM)) [%] | moisture content ([3]; sprayed at higher gas flow rate (10 SCFM)) [%] | moisture content ([3]; sprayed at lower gas flow rate (5 SCFM)) [%]
1 | Dextran 500 | 5.16 | – | – | – | – | – | – | –
2 | Bovine Serum Albumin [BSA] | – | 1.25 | 9.6 | 6.2 | 32.6 | 5.5 | 26.1 | 1.1

Like-named read-outs stand apart in the source and are kept apart here.
